Data from US20100028447A1, “Intranasal, Buccal, And Sublingual Administration Of Metanicotine Analogs” (TARGACEPT, INC., priority 2007, published 2010).

Test: In situ brain perfusion, single time-point method

**Q.** Which “Vascular Space” value (Table 4 Treatment 2: Compound B perfused with references + MAO inhibitor Pargyline, Rat 1) does the source give for `CC(C)NCC(O)COc1ccc(CC(N)=O)cc1` (stereo not shown) [Atenolol] here?
**A.** 16.59 µL/g

**Q.** And the “Vascular Space” value (Table 4 Treatment 2: Compound B perfused with references + MAO inhibitor Pargyline, Rat 2)?
**A.** 13.69 µL/g

**Q.** What about the “Vascular Space” value (Table 4 Treatment 2: Compound B perfused with references + MAO inhibitor Pargyline, Rat 3) of the same compound?
**A.** 10.89 µL/g

**Q.** What about the Vascular Space (in all animals) of the same compound?
**A.** ≤ 20 μL/g of brain tissue
